Test results as given in ChEMBL document CHEMBL1153781, “Prediction of volume of distribution values in human using immobilized artificial membrane partitioning coefficients, the fraction of compound ionized and plasma protein binding data” (Eur J Med Chem, 2009).

Test: Dissociation constant, pKa of the compound
Type: physicochemical

| pKa | Compound |
| --- | --- |
| 4.08 | Cc1cnc(NC(=O)C2=C(O)c3ccccc3S(=O)(=O)N2C)s1 [MELOXICAM] |
| 6.4 | Nc1ccc(S(=O)(=O)Nc2ncccn2)cc1 [SULFADIAZINE] |
